SMILES strings stand for the structures.

Sequences of proteins named here, by UniProt entry; tags and fusion partners are left off.
UniProt P28647, whole entry: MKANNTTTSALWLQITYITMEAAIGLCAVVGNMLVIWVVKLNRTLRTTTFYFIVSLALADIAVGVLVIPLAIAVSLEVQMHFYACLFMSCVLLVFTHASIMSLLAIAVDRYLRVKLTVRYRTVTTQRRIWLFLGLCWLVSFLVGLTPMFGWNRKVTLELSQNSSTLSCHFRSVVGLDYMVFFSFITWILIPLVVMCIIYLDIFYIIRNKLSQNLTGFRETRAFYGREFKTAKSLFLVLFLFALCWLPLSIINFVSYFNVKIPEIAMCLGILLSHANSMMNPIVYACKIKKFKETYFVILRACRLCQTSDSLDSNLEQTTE

The assay has as its target Adenosine receptor A3 (Rattus norvegicus, UniProt P28647). Nature of the assay: Displacement of [125I]- AB-MECA from rat adenosine A3 receptor expressed in CHO cells. Type of assay: cell-based.

Compound `OC[C@H]1O[C@@H](n2cnc3c(NC4CCCC4)ncnc32)[C@H](O)[C@@H]1O` [N6-CYCLOPENTYLADENOSINE] displayed an inhibition constant (Ki) of 274 nM. In other words, the sub-micromolar range.

A word on the Ki: it is a measure of affinity in units of concentration, obtained from inhibition or displacement. Low values mean higher affinity, high ones lower affinity.

The values above are taken from ChEMBL document CHEMBL1133730 (J Med Chem, 2000).
